Earlier results in patent publication US20100004244A1, “USE OF CB2 RECEPTOR AGONISTS FOR PROMOTING NEUROGENESIS” (priority 2006, published 2010).

By UniProt entry, the sequences of proteins in these tests, tags left out.
UniProt P34972, whole entry: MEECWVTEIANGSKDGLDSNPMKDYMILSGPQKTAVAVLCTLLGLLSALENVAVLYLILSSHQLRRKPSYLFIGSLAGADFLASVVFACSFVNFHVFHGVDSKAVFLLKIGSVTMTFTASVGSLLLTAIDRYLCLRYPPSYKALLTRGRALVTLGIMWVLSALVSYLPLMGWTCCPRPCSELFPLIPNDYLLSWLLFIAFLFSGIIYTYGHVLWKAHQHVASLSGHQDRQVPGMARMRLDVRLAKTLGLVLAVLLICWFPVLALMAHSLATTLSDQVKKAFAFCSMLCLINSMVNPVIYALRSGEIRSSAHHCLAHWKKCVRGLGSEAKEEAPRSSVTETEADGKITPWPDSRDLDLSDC

Target: human CB2 receptors (Homo sapiens, UniProt P34972)
Conditions: read-out: IC50 for binding to human CB2 receptors; as disclosed in WO 03/064359; cited from earlier work

SMILES: CCCCCCC(C)(C)c1cc(OC)c(C2C=C(CO)C3CC2C3(C)C)c(OC)c1 (single isomer, unassigned; (+)) [HU-308, (+) {4-[4-(1,1-dimethylheptyl)-2,6-dimethoxyphenyl]-6,6-dimethyl-bicyclo[3.1.1]hept-2-en-2-yl}-methanol]
- IC50: 0.0133 µM
